Measured values: PubChem BioAssay AID2255 (Sanford-Burnham Center for Chemical Genomics, 2010)
Activity calls are given as the source filed them.

Test system: NF-kB luciferase reporter cells, doxorubicin-induced
Test: PubChem AID 2255

## Cc1ccc(S(=O)(=O)n2c(N)nc3ccccc32)cc1
  IC50: inactive: > 25 µM
